Tested on: mice
Settings: mouse, in vivo

## hydroquinone sulfonic acid formaldehyde co-polymer [PS53]
  toxic symptoms: did not show toxic symptoms

From patent US5925621A, “Method for preventing sexually transmitted diseases” (priority 1997, dated 1999)
